For the assay, the target named is 5-hydroxytryptamine receptor 2C (Homo sapiens, UniProt P28335).

By UniProt entry, the sequences of proteins in these tests, tags left out. Where a name states a change or a piece, a line headed by the entry shows the natural chain unless it says otherwise.
UniProt P28335: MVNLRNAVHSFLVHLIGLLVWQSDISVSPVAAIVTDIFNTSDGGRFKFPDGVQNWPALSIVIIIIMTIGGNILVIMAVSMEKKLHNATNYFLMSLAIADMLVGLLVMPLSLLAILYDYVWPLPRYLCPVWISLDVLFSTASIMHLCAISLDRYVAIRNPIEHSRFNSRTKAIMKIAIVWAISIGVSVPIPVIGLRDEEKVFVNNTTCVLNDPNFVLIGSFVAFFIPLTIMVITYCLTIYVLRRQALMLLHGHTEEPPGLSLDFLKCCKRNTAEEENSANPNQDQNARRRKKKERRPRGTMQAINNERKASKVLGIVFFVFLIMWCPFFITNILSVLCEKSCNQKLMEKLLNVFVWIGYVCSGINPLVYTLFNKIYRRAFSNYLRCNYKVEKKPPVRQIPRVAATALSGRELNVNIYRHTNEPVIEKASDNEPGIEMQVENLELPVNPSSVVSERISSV

One molecule from BindingDB's records for PubMed 8510008 (Eli Lilly, 1993) can be followed below.

SMILES strings stand for the structures.

One may read the Ki as the dissociation constant of the complex between target and ligand, obtained from inhibition or displacement.

Molecule `CN1C[C@@H](NS(=O)(=O)N(C)C)C[C@@H]2c3cccc4c3c(cn4C)C[C@H]21` [MESULERGINE] had an inhibition constant Ki of 48.5 nM.
